High-throughput results from PubChem.
rTrxR1 inhibitor: rat TrxR1 inhibition; O89049; recombinant rTrxR1, NADPH fluorescence consumption, selenite substrate; Potency, µM (highest dose often 114 µM), without a hit: at the top dose activity change, negative = inhibition, hits mostly inhibitors; hit rate 1% among 390,000; AID 588453; also: potency is read from the fitted curve at half-maximal effect; % is scaled to controls: 0 for no effect and ±100 for the full control effect; nearly all actives have a fitted effect of over 65% in size
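Rat TrxR1 (90 nM in the dispensed reagent) was pre-reduced with 400 uM NADPH for 5 min at room temperature, then incubated with compound for 15 min. After 400 uM selenite was added, NADPH fluorescence (Ex 340/Em 450 nm) was followed for 8 min.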
Anesthetic bind: binds horse apoferritin like a general anesthetic | Potency, µM (top dose mostly 77.5 µM), without a hit: top-dose activity change, negative = displacement, actives largely listed as inhibitors | hit rate 0.074% among 350,000 | apoferritin/1-aminoanthracene competitive binding, fluorescence; also: potency is read from the fitted curve at half-maximal effect; % is scaled to controls: 0 for no effect and ±100 for the full control effect; nearly all actives have a fitted effect of over 20% in size
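Read-out: endpoint 1-AMA fluorescence, excitation 380 nm and emission 535 nm, after compounds sit 10 min at room temperature with 10 uM horse-spleen apoferritin in 50% saturated 1-AMA/PBS. Values come from four-parameter Hill fits.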
miR-21 reporter: miR-21 reporter, rising signal | HeLa miR-21 FLuc reporter, luciferase, 48 h | Potency, µM (top dose mostly 38.3 µM), inactives show at the highest dose reporter change, positive = more light | 340,000 tested, under 10 active | AID 2288; active = well fitted rising curve with a large enough effect; inconclusive = small, poorly fitted or top-dose-only effect; inactive = no such curve, though single readings can be large or run the other way;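 note: % of control where 0% means no effect; miR-21 action dims this reporter so a rising signal means less miR-21 action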
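HeLa cells endogenously expressing miR-21, stably carrying CMV-driven firefly luciferase with a downstream miR-21 binding site, 2000 cells/well. Titrations up to approximately 40 uM, 48 hours; luciferase luminescence read.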
TrxR1 substrate: substrates of rat thioredoxin reductase 1. AID 588456. purified TrxR1 substrate turnover, NADPH consumption readout. hit rate 0.01% among 390,000. Potency, µM (top dose mostly 114 µM), inactives show at the top dose activity change, negative = substrate turnover; also: potency is read from the fitted curve at half-maximal effect; % is scaled to controls: 0 for no effect and ±100 for the full control effect; nearly all actives have a fitted effect of over 50% in size
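Rat TrxR1, dispensed at 90 nM, was prereduced with 400 uM NADPH (final) for 5 min at ~22 deg C, then incubated with compound 15 min before 400 uM selenite. A first-read NADPH fluorescence drop versus no-compound background flagged substrates.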
ClpP mod: qHTS Assay for Activators of ClpP; hit rate 1.9% among 340,000; Potency, µM (titrated, usually from 57.5 µM), without a hit: at the top dose activity change, negative = active; purified B. subtilis ClpP, FRET peptide cleavage, 20 min; active = well fitted falling curve with a large enough effect; inconclusive = small, poorly fitted or top-dose-only effect; inactive = no such curve, though single readings can be large or run the other way; also: potency is read from the fitted curve at half-maximal effect; the source files actives as falling curves though it sought activators and does not explain the sign; nearly all actives have a fitted effect of over 65% in size
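Buffer: 100 mM Tris/HCl pH8, 100 mM KCl, 0.05% low protease BSA, 2.5% glycerol, 0.01% Tween-20. ClpP 10 microg/mL final; 20 min RT; delta FRET normalized to ADEP and DMSO controls.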
Active calls of the source: *; ? = inconclusive; · = no result; [ ] = dose if it differs, or a comment. A selection: hits, their analogues and other compounds. The true share with any hit is near 2.5%. Unless noted, calls follow the shape of the dose curve; as a rule, active = well fitted curve in the direction sought with a large enough effect; inconclusive = small, poorly fitted or top-dose-only effect, or another doubt; inactive = no such curve, though single readings can be large; an effect the other way counts as inactive or inconclusive.

smiles | Anesthetic bind | miR-21 reporter | ClpP mod | TrxR1 substrate | rTrxR1 inhibitor
CCc1nnc(SC(CC)C(=O)Nc2cccc(OC)c2)c2cc3oc(C)cc3n12 (configuration not stated) | 62.0% | -13.0% | -16.8% | 0.4% | 20.3%
O=S(=O)(c1ccc2nnn(O)c2c1)N1CCOCC1 | · | · | 2.2% | -5.8% | 56.2µM*
O=S(=O)(c1ccc2ncn(O)c2c1)N1CCOCC1 | -2.8% | -1.3% | · | 10.4% | 33.6%
O=C(Cn1c(=O)n(Cc2ccccc2)c(=O)c2ccccc21)NCc1ccco1 | -14.9% | -8.9% | -8.5% | 6.6% | -20.1%
COc1cc2c(=O)n(Cc3ccccc3)c(=O)n(CC(=O)NCc3ccco3)c2cc1OC | -2.1% | 7.7% | 15.8µM* | 12.0%[57.1 µM] | 8.2%
COc1ccccc1NC(=O)Cn1c(=O)n(Cc2ccco2)c(=O)c2oc3ccccc3c21 | -10.2% | -1.3% | 31.6µM* | -3.7% | 22.1%
COc1ccc(OC)c(NC(=O)Cn2c(=O)n(Cc3ccco3)c(=O)c3cc(OC)c(OC)cc32)c1 | -11.3% | 1.2% | -8.6% | -0.2% | 0.8%
COc1cccc(NC(=O)Cn2c(=O)n(Cc3ccco3)c(=O)c3cc(OC)c(OC)cc32)c1 | -1.2% | 1.8% | 28.2µM* | -5.0% | ?
COc1ccc(Nc2oc(-c3ccc(COc4ccccc4C)o3)nc2C#N)cc1 | 50.0% | -12.0% | 4.4% | 3.1% | 1.4%
Cc1sc2ncn(CC(=O)N3CCN(c4ccccc4)CC3)c(=O)c2c1S(=O)(=O)N1CCC(C)CC1 | -1.8% | 17.7% | -0.3% | -0.2% | 24.9%
COC(=O)c1sc2c(c1C)c(=O)n(-c1ccccc1)c(=O)n2CC(=O)Nc1cccc(C)c1 | -4.1% | 10.6% | 2.6% | 3.6%[57.1 µM] | 17.4%[57.1 µM]
CS(=O)(=O)c1ccc(-n2nnc3ccccc32)c([N+](=O)[O-])c1 | 4.1% | -6.7% | · | 2.3% | 26.9%
N#Cc1cc([N+](=O)[O-])c(-n2nnc3ccccc32)c([N+](=O)[O-])c1 | -9.9% | -3.1% | -0.1% | -1.5% | 15.8µM*
Cc1ccc(NC(=O)Cn2nc(C)c3nn(-c4ccc(Cl)cc4)c(C)c3c2=O)cc1F | -3.2% | 19.1% | -8.3% | 2.0%[57.1 µM] | 31.4%[57.1 µM]
C/C(=N/NC(=O)c1ccncc1)c1cc2ccc(O)cc2oc1=O | 664.1% | -5.7% | 31.6µM* | 359.6% | 22.6%
C/C(=N\NC(=O)c1ccncc1)c1cc2ccccc2oc1=O | -0.2% | 2.7% | 2.0% | -8.6% | ?
COc1cc(C2c3c(n[nH]c3C)C(=O)N2c2ccc(Br)cc2)ccc1O (configuration not stated) | 2.9% | -33.9% | -1.1% | 3.6% | 7.94µM*
COc1ccc(OC)c(NC(=O)c2c(NCc3ccc(C)o3)sc3c2CCC(C)C3)c1 (configuration not stated) | 2.3% | 1.3% | -1.0% | 0.3%[57.1 µM] | 4.4%[57.1 µM]
COc1cccc(NC(=O)N(Cc2c[nH]c3ccccc23)C2CCCCC2)c1 | -13.7% | -32.0% | -3.0% | -8.9% | -14.6%
COc1ccc(N2CCN(CCNC(=O)Nc3cccc(C)c3C)CC2)cc1 | 1.9% | -4.9% | -4.2% | -5.5% | 11.8%
COc1ccccc1N1CCN(CCNC(=O)Nc2cccc(C)c2C)CC1 | -3.5% | 3.8% | 31.6µM* | -10.9% | -13.6%
CC(=O)c1ccc(NC(=O)CSc2nc(C3CCCC3)nc3c2c(=O)n(C)c(=O)n3C)cc1 | 0.5% | -1.1% | 1.8% | 0.2%[57.1 µM] | 5.9%[57.1 µM]
O=C(NC(NNc1ccc([N+](=O)[O-])cc1)(C(F)(F)F)C(F)(F)F)c1ccccc1Cl | ? | 16.3% | 2.5% | -22.1% | 3.16µM*
COC(=O)C(NNc1ccccc1)(NC(=O)c1ccc(F)cc1)C(F)(F)F (configuration not stated) | -15.2% | -13.1% | 64.9% | -0.8% | -12.0%
O=C(NC(NNc1ccc([N+](=O)[O-])cc1)(C(F)(F)F)C(F)(F)F)c1ccc(F)cc1 | ? | 29.3% | 0.8% | -25.4% | 28.2µM*

The list goes on; it opens with the four that closed the last part.
smiles | Anesthetic bind | miR-21 reporter | ClpP mod | TrxR1 substrate | rTrxR1 inhibitor
CC(=O)c1ccc(NC(=O)CSc2nc(C3CCCC3)nc3c2c(=O)n(C)c(=O)n3C)cc1 | 0.5% | -1.1% | 1.8% | 0.2%[57.1 µM] | 5.9%[57.1 µM]
O=C(NC(NNc1ccc([N+](=O)[O-])cc1)(C(F)(F)F)C(F)(F)F)c1ccccc1Cl | ? | 16.3% | 2.5% | -22.1% | 3.16µM*
COC(=O)C(NNc1ccccc1)(NC(=O)c1ccc(F)cc1)C(F)(F)F (configuration not stated) | -15.2% | -13.1% | 64.9% | -0.8% | -12.0%
O=C(NC(NNc1ccc([N+](=O)[O-])cc1)(C(F)(F)F)C(F)(F)F)c1ccc(F)cc1 | ? | 29.3% | 0.8% | -25.4% | 28.2µM*
O=C(O)CSC1=NS(=O)(=O)c2ccccc21 | · | · | -6.2% | 21.2%[0.0914 µM] | 11.7%
COc1ccc(C)cc1NC(=O)NC(C)c1c(-n2cccc2)sc(C)c1C (configuration not stated) | 0.3% | 11.4% | -8.6% | -3.4% | 7.5%
COc1ccc(Cl)cc1C(=O)OCC(=O)c1c(N)n(C)c(=O)n(C)c1=O | · | · | -5.7% | · | ·
COc1cc2ccccc2cc1C(=O)OCC(=O)c1c(N)n(C)c(=O)n(C)c1=O | · | · | 31.6µM* | 50.4% | -6.2%
Cc1ccc(S(=O)(=O)/N=C(/c2ccc(F)cc2)N2CCCCC2)cc1 | 5.1% | -1.0% | 31.6µM* | 10.1% | 17.0%
CCOc1ccc(N2C(=O)C3C(c4ccccc4)=NN(c4ccccc4)C3C2=O)cc1 (configuration not stated) | -9.6% | -3.2% | 11.2µM* | 277.9% | 113.6%
CCOc1ccc(N2C(=O)C3C(C2=O)C3(c2ccccc2)c2ccccc2)cc1 (configuration not stated) | 45.3% | ? | -2.8% | -2.4% | 15.5%
O=C(C1COc2ccccc2O1)N1CCN(c2nc3ccc(F)cc3s2)CC1 (configuration not stated) | 6.7% | -1.6% | -4.5% | -7.0%[57.1 µM] | 8.2%[57.1 µM]
CC(NC(=O)C1CCCC1)C1CC2CCC1C2 (configuration not stated) | -20.3% | -0.9% | 28.2µM* | 6.5% | 8.4%
CC(NC(=O)c1ccccc1[N+](=O)[O-])C1CC2CCC1C2 (configuration not stated) | -15.3% | -13.1% | 25.1µM* | -4.7%[57.1 µM] | 11.8%[57.1 µM]
CCOc1ccc2nc(NCCNC(=O)CC)c(C#N)cc2c1 | 640.8% | -10.3% | ? | 100.2% | 14.2%
Cc1ccc2cc(C#N)c(NCCNC(=O)C3CC3)nc2c1C | -2.6% | -6.7% | 35.5µM* | 21.1% | 12.6%
CCC(=O)NCCNc1nc2cc(C)c(C)cc2cc1C#N | 5.6% | -4.3% | 12.6µM* | 78.1% | 6.2%
COc1cc(CN2CCN(S(=O)(=O)c3ccccc3)CC2)cc(OC)c1O | -4.1% | 1.0% | -0.3% | 1.5% | 20µM*
O=C(CN1CCN(S(=O)(=O)c2ccc(F)cc2)CC1)Nc1cccc(C(F)(F)F)c1 | 71.7% | 18.0% | 28.2µM* | -16.4% | -21.6%
COc1cc(CN2CCN(S(=O)(=O)c3ccc(NC(C)=O)cc3)CC2)cc(OC)c1O | -13.3% | -0.3% | -0.1% | 1.2% | 12.6µM*
COc1ccc(S(=O)(=O)N2CCCN(CC(=O)Nc3ccc(OC)c(Cl)c3)CC2)cc1 | 0.2% | -1.6% | 0.5% | 5.1% | 50.1µM*
COc1ccc(CN2CCN(S(=O)(=O)c3ccc(NC(C)=O)cc3)CC2)cc1OC | -20.4% | -12.4% | -0.1% | 11.1%[57.1 µM] | 13.9%
CSc1ncc(C(=O)Nc2cc(Cl)ccc2C)c(-c2ccccc2)n1 | -2.0% | 7.8% | -2.5% | 2.5% | 17.0%
